In article PMC6222696, “Inhibition of UGT2B7 Enzyme Activity in Human and Rat Liver Microsomes by Herbal Constituents” (Molecules : A Journal of Synthetic Chemistry and Natural …, 2018):
Where two headings read alike, the source gives them in different places.

Molecular target: T1, UGT2B7 (Homo sapiens, UniProt P16662)
T1 sequence (P16662 24-529): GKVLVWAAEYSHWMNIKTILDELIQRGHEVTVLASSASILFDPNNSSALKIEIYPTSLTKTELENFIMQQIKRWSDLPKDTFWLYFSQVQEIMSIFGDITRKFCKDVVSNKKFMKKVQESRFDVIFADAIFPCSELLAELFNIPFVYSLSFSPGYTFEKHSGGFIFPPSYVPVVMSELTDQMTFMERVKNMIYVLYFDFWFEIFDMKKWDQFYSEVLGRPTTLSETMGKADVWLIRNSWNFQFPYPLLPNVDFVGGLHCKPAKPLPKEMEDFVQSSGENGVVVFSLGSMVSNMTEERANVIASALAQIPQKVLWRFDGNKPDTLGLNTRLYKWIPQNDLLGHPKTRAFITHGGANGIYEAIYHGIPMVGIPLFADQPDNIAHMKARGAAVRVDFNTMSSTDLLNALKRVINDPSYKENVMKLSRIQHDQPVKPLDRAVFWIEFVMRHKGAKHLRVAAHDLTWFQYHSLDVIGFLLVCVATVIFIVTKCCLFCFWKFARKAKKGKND
Assay: Inhibition of ZDV glucuronidation in human liver microsomes (HLM)

Substance: kaempferol-3-O-rutinoside [kaempferol-3-rutinoside]
- IC50 (read-out: IC50 for inhibition of ZDV glucuronidation in HLM, human liver microsomes, ZDV as UGT2B7 probe substrate, 1% (w/v) BSA): 18.6 ± 8.62 µM
- IC50 (read-out: concentration showing 50% inhibition of ZDV glucuronidation in HLM (screening), screening at 1 µM, 10 µM and 100 µM): < 100 µM
